Apparent affinities of Ab-14 variants for a coronavirus HR2 peptide

Binding partner: SARS-CoV-2 spike HR2 peptide, sequence PDVDLGDISGINAS.

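The starting antibody came from a phage panning campaign against this peptide. The variants were designed computationally from a first round of random CDR variants and then made and measured. Several design methods are mixed in this list. AlphaSeq pools MATa yeast showing the antibodies with MATalpha yeast showing the peptide. Mating (16 h, 30 °C) was followed by selection of diploids and sequencing of their barcodes. A regression on co-assayed BCL2-family reference pairs converts the normalised counts of each replicate to an apparent Kd. There are six technical replicates.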

Each scFv is VH, a 15-residue (Gly4Ser)3 linker, VL, as in the parent Ab-14, and differs from it in the CDRs of the light chain only.
VH: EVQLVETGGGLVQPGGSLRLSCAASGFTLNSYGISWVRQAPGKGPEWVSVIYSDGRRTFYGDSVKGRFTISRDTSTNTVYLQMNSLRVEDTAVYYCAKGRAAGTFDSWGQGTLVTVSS
VL: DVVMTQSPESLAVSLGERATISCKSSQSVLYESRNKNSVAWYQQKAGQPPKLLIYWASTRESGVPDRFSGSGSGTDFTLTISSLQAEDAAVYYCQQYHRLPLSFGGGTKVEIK

Variants are written as CDR1, CDR2 and CDR3 of the light chain (limits as in the source). Parent: KSSQSVLYESRNKNSVA, WASTRES, QQYHRLPLS.
Scale: log10 of Kd in nM, estimated from mating counts; low values are strong binders.
A mean of the replicates is given; it leaves out those without a signal.
Where no diploid with the target was found in any replicate, the entry reads "nd": below detection, most likely a poor binder, though not proof of it.
In the paper, a design with two or fewer of six values counts as a poor binder.
Background: pairings of all light chain designs with three empty control strains gave a value in 4% of cases (median 2.64, 5th percentile 1.59). Values in that range, when seen in few replicates, are hard to tell from nonspecific mating. Also given: how often the same scFv was detected with the empty control strains.
Values of this round are not directly comparable with the first-round values of the same sequences.
The parent sequence was in this pool as ten entries: three were never detected, three once, and four in most replicates, with averages from 0.34 to 2.37.

| CDR-L1 | CDR-L2 | CDR-L3 | mean, log10 nM | seen in | signal with controls |
|---|---|---|---|---|---|
| KSKQSTLYESRNKNSVA | WASTRES | DQYSRLPLS | nd | 0/6 | 0/18 |
| KSSPSYLYPSRNENSVA | EASTREQ | QQYHRLPLS | 0.16 | 6/6 | 0/18 |
| KLSMSMLMEQRNKNSVA | ENSTRES | QHYHRLPLS | nd | 0/6 | 0/18 |
| KSGQGGLYESRNKNSVA | GASLRES | QQYHRLPLS | 0.10 | 6/6 | 2/18 |
| KLTMITGLEKVSTNNVA | EMETREK | QQYNRLPLS | 0.59 | 6/6 | 0/18 |
| SLVQEKSVGDYNAGNVA | AGNQLSV | QQYNRLPLI | 0.18 | 6/6 | 0/18 |
| SLQSEALGGNQKTSSIA | GNSVAMP | QQYERLPLD | 2.08 | 6/6 | 3/18 |
| KSSDSVLYESRNKNSVA | EASTRES | QQYHWLPLS | 1.31 | 6/6 | 2/18 |
| KLSQSVLYESRNKNSVA | SASQRES | QQYHRLPLS | nd | 0/6 | 0/18 |
| KSSQSVLYESRNKQSVA | WASTRVS | QQYHREPLS | nd | 0/6 | 0/18 |
| AVSIEHTEGTRYWNAIA | DLSQRNN | QQYDQLPLS | 2.01 | 2/6 | 0/18 |
| SLPNARPDGSLQKNNVA | EGTERSD | QQYMRLPLF | 0.16 | 6/6 | 0/18 |
| KSSQSVLYESRNKGSVA | WASTRES | DQYVRLPLS | 1.20 | 1/6 | 0/18 |
| KLGGVTSYEMQNKNSVA | QMTTRES | QQYDRLPLS | 0.15 | 6/6 | 0/18 |
| KLSQSVLYESRMKNNVA | HASTRES | QQYHRLPLS | 0.38 | 6/6 | 2/18 |
| KVSQSVLYESRMKNSVA | NASTRES | QQYHRLPLS | -0.46 | 6/6 | 1/18 |
| QIYQAMHTLSQMKHNVA | DVSERGS | QQYFRLPLS | -0.04 | 6/6 | 0/18 |
| KSSQSVLYESRNPNSVA | AASTRES | QQYHKLPLS | 0.12 | 6/6 | 0/18 |
| KISQSDLYESRNKNSVA | NASTRES | QQYHRLPLS | 0.40 | 6/6 | 1/18 |
| KSSQSEWLSSREKNSVA | WASTRES | QQYHRLPLS | 1.71 | 6/6 | 0/18 |
| KVSQSVLYESGTKNSVA | NASYRES | QQYHRLPLS | 0.35 | 6/6 | 3/18 |
| KSSQSVDCESRNKNSVA | DASTRES | QQYHRLPLS | 0.84 | 6/6 | 0/18 |
| KFSQSELYESRNKNSVA | NASQREQ | QQYHRLPLS | -0.11 | 6/6 | 1/18 |

Further variants, results first:

| mean, log10 nM | seen in | signal with controls | CDR-L1 | CDR-L2 | CDR-L3 |
|---|---|---|---|---|---|
| 1.49 | 6/6 | 0/18 | KIQMNEGTLMEQINSIA | NSEVIVQ | QSYFRLPLS |
| 4.19 | 1/6 | 0/18 | KSLQDWLYESRNKNSVA | HASTREQ | QQYHRLPLS |
| 0.80 | 6/6 | 0/18 | MLSQMTGLGMKAKNSVA | QANMRFD | QQYHRLPLV |
| nd | 0/6 | 0/18 | KSSQSVLYEDRNKRSVA | WASTRER | QQDHRLPLS |
| 0.33 | 6/6 | 0/18 | KMNDDFQVNERNNGSVA | DAIISEA | QQYARLPLI |
| 0.93 | 5/6 | 0/18 | MISQILNMGQFAINSVA | QASIRNA | QQYDRLPLA |
| 0.29 | 6/6 | 1/18 | MISQLMNLGQFAINSVA | QAQIRNQ | QQYDRLPLA |
| -0.24 | 6/6 | 1/18 | KLDQSGLYESRNKNSVA | NASTRES | QQYHRLPLS |
| nd | 0/6 | 0/18 | MISQLYNMGQFAINSVA | QAETRCN | QQYDRLPLT |
| -0.14 | 6/6 | 0/18 | KMSQSWLGQSWNKNSVA | EASQRES | QQYHRLPLS |
| -0.45 | 6/6 | 1/18 | KLPQSMLYESRNKNSVA | DASTRES | QQYHRLPLS |
| -0.25 | 6/6 | 0/18 | KLQQSVEYESRNKNSVA | NASTRES | QQYHRLPLS |
| 0.15 | 6/6 | 0/18 | KISQSVKFESRNKNSVA | DASTRES | QQYHRLPLS |
| 0.86 | 6/6 | 0/18 | KLTSITGTEKVKGNNVA | EMETRES | QQYNRLPLS |
| 1.44 | 6/6 | 0/18 | TISQSAHMESHNKNSVA | DLNVRGS | QQYDRLPLS |
| 2.41 | 6/6 | 1/18 | TITAFMDNLSQNRNNVA | DTSTLGS | QSYDRLPLS |
| nd | 0/6 | 0/18 | KSSQSVLYESRNKESVA | WASTRES | QQYHRLPLG |
| 0.21 | 6/6 | 0/18 | KLPGEQGYESRNKASVA | QASTRES | QQYHRLPLS |
| 1.30 | 6/6 | 1/18 | MISNVMNTLTRIGNNVA | DLAERED | QQYFRLPLS |
| 0.69 | 6/6 | 0/18 | TISGMTSLFSQSINNVA | EVSTREP | QQYDRLPLV |
| 1.44 | 6/6 | 1/18 | KFSQSVLYESRNKNSVA | WASTRPS | QQYHRLPLS |
| 0.49 | 6/6 | 1/18 | KLYDMAAVTMQNIRNVA | DNSTREE | QQYHRLPLS |
| 0.83 | 6/6 | 0/18 | KLTATMRFELSKSNNIA | EVTTRSK | QQYYRLPLA |

Top 7 of the variants detected in all replicates, tightest first:

{"CDR-L1": "KVSQSVLYESRMKNSVA", "CDR-L2": "NASTRES", "CDR-L3": "QQYHRLPLS", "mean, log10 nM": "-0.46", "seen in": "6/6", "signal with controls": "1/18"}
{"CDR-L1": "KLPQSMLYESRNKNSVA", "CDR-L2": "DASTRES", "CDR-L3": "QQYHRLPLS", "mean, log10 nM": "-0.45", "seen in": "6/6", "signal with controls": "1/18"}
{"CDR-L1": "KLQQSVEYESRNKNSVA", "CDR-L2": "NASTRES", "CDR-L3": "QQYHRLPLS", "mean, log10 nM": "-0.25", "seen in": "6/6", "signal with controls": "0/18"}
{"CDR-L1": "KLDQSGLYESRNKNSVA", "CDR-L2": "NASTRES", "CDR-L3": "QQYHRLPLS", "mean, log10 nM": "-0.24", "seen in": "6/6", "signal with controls": "1/18"}
{"CDR-L1": "KMSQSWLGQSWNKNSVA", "CDR-L2": "EASQRES", "CDR-L3": "QQYHRLPLS", "mean, log10 nM": "-0.14", "seen in": "6/6", "signal with controls": "0/18"}
{"CDR-L1": "KFSQSELYESRNKNSVA", "CDR-L2": "NASQREQ", "CDR-L3": "QQYHRLPLS", "mean, log10 nM": "-0.11", "seen in": "6/6", "signal with controls": "1/18"}
{"CDR-L1": "QIYQAMHTLSQMKHNVA", "CDR-L2": "DVSERGS", "CDR-L3": "QQYFRLPLS", "mean, log10 nM": "-0.04", "seen in": "6/6", "signal with controls": "0/18"}

Source: Li et al. 2023 (doi:10.1038/s41467-023-39022-2), MIT Lincoln Laboratory and A-Alpha Bio; data file from the FLAb repository.